For one molecule, IC50 results are on record in patent US10030004B2, “Compounds and methods of use” (Medivation Technologies LLC, priority 2014, dated 2018).

The chains behind the UniProt entries cited, without tags or fusion partners. Residues count along the entry.
UniProt P36894, 24-532: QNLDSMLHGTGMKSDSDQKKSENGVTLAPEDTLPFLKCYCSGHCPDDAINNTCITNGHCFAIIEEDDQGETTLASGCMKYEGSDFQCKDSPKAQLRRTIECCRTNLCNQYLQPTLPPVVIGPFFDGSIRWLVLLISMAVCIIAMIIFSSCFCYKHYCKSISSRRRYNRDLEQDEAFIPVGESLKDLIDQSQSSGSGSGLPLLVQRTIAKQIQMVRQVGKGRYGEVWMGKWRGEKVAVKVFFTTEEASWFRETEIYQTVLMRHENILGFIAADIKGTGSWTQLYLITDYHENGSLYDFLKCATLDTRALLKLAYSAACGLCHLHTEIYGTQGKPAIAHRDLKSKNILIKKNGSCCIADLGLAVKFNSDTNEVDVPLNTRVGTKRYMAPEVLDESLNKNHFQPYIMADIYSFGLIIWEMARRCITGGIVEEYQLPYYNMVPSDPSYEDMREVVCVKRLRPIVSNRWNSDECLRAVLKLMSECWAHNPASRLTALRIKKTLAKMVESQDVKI

This experiment concerns the target ALK3 (BMPR1A) (Homo sapiens (Human), UniProt P36894). The experiment can be described thus: In vitro kinase assay, ALK3. It is filed as biochemical. Particulars: read-out: Inhibition of ALK3 IC50.

pIC50: −log10 of the molar value. Some results are limits rather than exact numbers.

Turning to `COC(C)(C)c1cnc(-c2cc(Cl)ccc2F)cc1Nc1ccncc1C(=O)NCC(C)O` (single isomer, unassigned) [17a, 4-[[2-(5-chloro-2-fluoro-phenyl)-5-(1-methoxy-1-methyl-ethyl)-4-pyridyl]amino]-N-(2-hydroxypropyl)pyridine-3-carboxamide], the pIC50 was less than 3.00.

Broadly, the pIC50 is −log10 of the IC50, conventionally taken in molar units.
